Measurements taken from patent US20040072882A1 (priority 2002, published 2004).

Assay: Toxicity monitoring in the patient study
Type: in vivo, human
Settings: patients, intravenous infusion
Text: In order to ensure that toxic limits are not exceeded, the effects of the administration on the subject are monitored. Possible effects include neurological impairment(s), which may manifest itself as cognitive/perceptual abnormalities, numbness in the limbs, difficulty in walking, dizziness, and the like. […] Other side effects may include nausea and vomiting, fatigue, rash, alopecia, and alteration in vital signs such as orthostatic hypotension.
H1/H2 blockers were given orally to the subjects 30-60 minutes prior to infusion to prevent any adverse reactions to the CREMOPHOR® in the composition. […] Thus, a dosage of 9 mg/m^2 required about 10-15 minutes of infusing, while a dose of 150 mg/m^2 required 3-4 hours of dosing. The patients were monitored by testing CBC with differential weekly, various laboratory tests every three weeks, and physical exams including neurological assessment every three weeks. Tumor assessments were made every six weeks.
Other neurological effects included transient motor neuropathy (unsteadiness, ataxia, and dizziness), muscle twitching, and sensory neuropathy occurring as tingling with occasional numbness generally in the fingers and toes. Still other toxicities included fatigue, nausea and vomiting, diarrhea, and constipation.

Structure (SMILES): C/C1=C/C[C@@H](/C(C)=C/c2csc(C)n2)OC(=O)C[C@H](O)C(C)(C)C(=O)[C@H](C)[C@@H](O)[C@@H](C)CCC1 [epothilone D, Desoxyepothilone B]
- dose-limiting toxicity: primarily neurological
